Results: paper PMC9655341 (Molecules, 2022)

Sequences of proteins named here, by UniProt entry; tags and fusion partners are left off.
UniProt P48039, whole entry: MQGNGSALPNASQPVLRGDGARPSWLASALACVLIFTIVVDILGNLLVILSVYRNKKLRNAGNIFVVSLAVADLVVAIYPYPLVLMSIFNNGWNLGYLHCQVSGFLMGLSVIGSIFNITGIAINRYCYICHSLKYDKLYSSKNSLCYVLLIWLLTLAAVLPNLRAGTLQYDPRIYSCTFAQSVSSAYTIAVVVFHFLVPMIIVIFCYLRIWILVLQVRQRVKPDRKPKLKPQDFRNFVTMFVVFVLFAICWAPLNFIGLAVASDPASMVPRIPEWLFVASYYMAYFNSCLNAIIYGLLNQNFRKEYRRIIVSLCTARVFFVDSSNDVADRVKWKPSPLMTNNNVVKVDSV
UniProt P49286, whole entry: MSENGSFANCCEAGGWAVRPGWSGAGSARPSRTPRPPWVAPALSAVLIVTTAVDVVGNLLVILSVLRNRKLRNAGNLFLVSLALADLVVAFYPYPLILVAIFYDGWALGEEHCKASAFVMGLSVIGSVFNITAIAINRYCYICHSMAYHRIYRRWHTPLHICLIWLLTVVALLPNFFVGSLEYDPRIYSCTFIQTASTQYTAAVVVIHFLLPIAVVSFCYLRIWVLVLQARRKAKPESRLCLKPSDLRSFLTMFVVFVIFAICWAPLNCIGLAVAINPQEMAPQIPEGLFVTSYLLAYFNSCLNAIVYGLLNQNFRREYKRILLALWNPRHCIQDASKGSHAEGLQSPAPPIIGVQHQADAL

How the values were obtained:
human MT1 receptors [1] = molecular target: T1, human MT1 receptors (Homo sapiens, UniProt P48039); experiment: Binding affinity at human MT1 receptors stably transfected in CHO cells, 2-[125I]iodomelatonin
human MT2 receptors [2] = molecular target: T2, human MT2 receptors (Homo sapiens, UniProt P49286); experiment: Binding affinity at human MT2 receptors stably transfected in CHO cells, 2-[125I]iodomelatonin
human MT1 receptors [3] = molecular target: T1, human MT1 receptors; experiment: Intrinsic activity at human MT1 receptors stably transfected in CHO cells; conditions: MT1, melatonin = 1.00
human MT2 receptors [4] = molecular target: T2, human MT2 receptors; experiment: Intrinsic activity at human MT2 receptors stably transfected in CHO cells; type: biochemical; conditions: MT2, melatonin = 1.00

MT1 pKi (Mean ± SD) (human MT1 receptors [1]): 6.11 ± 0.15 | MT2 pKi (Mean ± SD) (human MT2 receptors [2]): 6.68 ± 0.04 | MT1 Intrinsic Activity (human MT1 receptors [3]): 0.38 ± 0.14 | MT2 Intrinsic Activity (human MT2 receptors [4]): 0.52 ± 0.05
Compound: CC(=O)NCCc1cn(C)c2c(C)c(C)ccc12
